SMARCA2 act = increases SMARCA2 function in MMTV reporter cells. MG213 cells, MMTV-luciferase reporter, dexamethasone, overnight. activation, % at 9.1 µM. actives 1% (n = 370,000). AID 652017; in the data active = activation above about 7.8%
INS-1E GSIS act = primary screen for activators of insulin secretion dependent on glucose, INS-1E cells, GLuc reporter luminescence; INS-1E GLuc reporter insulin secretion, 2-3 h; activation, % at 16.6 µM; actives 0.61% (n = 370,000); AID 743287;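 active = lowest replicate activation of at least 40%, so every replicate reaches that level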
PDI inh = PDI (human) enzyme inhibition | P07237 | PDI insulin aggregation turbidity, A650, 90 min | inhibition, % at 10 µM | actives 0.052% (n = 350,000);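 active = mean inhibition across replicates of 30% or more, whatever share of single replicates reach that level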
Yeast UUG start-1 = modulators of start codon recognition fidelity in yeast; AID 602363; activity score, % at 18.7 µM; S. cerevisiae UUG-firefly luciferase reporter, luminescence/redox ratio; 0.13% of 350,000 active;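 active = replicate mean at a twofold rise or more, about +100% in these data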;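 note: firefly luciferase made from a UUG start codon reports start codon fidelity; reporter light over untreated wells divided by growth signal over untreated wells; some hits fall short of that in this replicate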
NR1D1 modulator = modulators of human Rev-erb alpha DNA binding. P20393. activity, % at 10 µM. Rev-erbα–FITC-DNA binding, fluorescence polarization, 90 min. actives 0.79% (n = 370,000);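 active = activity above about 14%, limit read from the data; passing the limit was not always enough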
ERp5 block = inhibitors of human ERp5. Q15084. ERp5 insulin aggregation, absorbance 650 nm, 90 min. inhibition, % at 9.99 µM. actives 0.05% (n = 350,000). AID 651711;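 active = mean replicate inhibition above about 25%, with every replicate also reaching it, limit read from the data, passing the limit was not always enough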
Yeast UUG start-2 = modulators of start codon recognition fidelity in yeast. AID 652061. S. cerevisiae UUG-start firefly luciferase, luminescence, 4 h; 100% means double the DMSO signal. 540 tested, under 10 active. shares compounds with Yeast UUG start-1. activation, % at 38 µM;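 active = signal increase whose fitted curve reaches an absolute level of 40 at a concentration under 10 µM; inactive = activity opposite to the expected increase, or the rest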
Numbers stand for hits; n = inactive; x = no result. Rows were chosen to be rich in hits. Some 2.1% of all compounds tested hit in one or more screens of this group.

SMILES	SMARCA2 act	INS-1E GSIS act	PDI inh	Yeast UUG start-1	NR1D1 modulator	ERp5 block	Yeast UUG start-2
O=C(NNc1ccccc1C(F)(F)F)c1sccc1Br	n	n	n	active	n	n	n
CCOC(=O)C1CCN(c2c(NCCCN(CC)c3ccccc3)c(=O)c2=O)CC1	n	n	n	n	n	x	x
CCN(CCCNc1cc2c(c(N)c1S(=O)(=O)O)C(=O)c1ccccc1C2=O)c1ccccc1	n	n	n	135	n	n	n
C[C@@H]1CN([C@@H](C)CO)S(=O)(=O)c2ccc(C#C[C@@H](C)O)cc2O[C@H]1CN(C)C(=O)C1CC1	x	n	x	n	x	n	x
O=C(CNC(=S)NC(=O)C1CCCCC1)c1ccccc1	n	n	n	523	n	n	n
CC(C)(C)C(=O)COC(=O)c1ccc(O)cc1	n	x	n	387	n	x	n
CNC[C@H]1Oc2cc(C#Cc3ccncc3)ccc2S(=O)(=O)N([C@H](C)CO)C[C@H]1C	x	n	x	129	x	n	n
C[C@H](CO)N1C[C@H](C)[C@H](CN(C)C(=O)C2CCOCC2)Oc2cc(C#Cc3ccncc3)ccc2S1(=O)=O	x	n	x	191	x	n	n
NCCCC[C@@H]1NC(=O)[C@H](CCC(=O)O)NC(=O)c2cc([N+](=O)[O-])cc(I)c2SC[C@@H](C(=O)NCC(N)=O)NC1=O	n	n	n	119	n	n	n
CCc1[nH]nc2c1C(Cc1ccccc1)C(C#N)=C(N)O2 (stereo not drawn)	n	x	n	n	n	x	x
CCCc1[nH]nc2c1C(Cc1ccccc1)C(C#N)=C(N)O2 (stereo not drawn)	n	n	n	501	n	x	n
O=C1c2ccccc2C(=O)c2c(Nc3ccc(CCO)cc3)ccc(O)c21	n	n	n	active	n	n	n
CO[C@@H]1CN(C)C(=O)c2cc(NC(C)=O)ccc2OC[C@@H](C)N(CC2CC2)C[C@H]1C	x	n	x	n	x	n	x
CC(C)N(C[C@H]1[C@H](c2ccccc2)[C@H](CO)N1S(C)(=O)=O)C(=O)CN(C)C	x	n	x	n	x	n	x
CC(C)N(C[C@H]1[C@H](c2ccccc2)[C@@H](CO)N1S(C)(=O)=O)C(=O)CN(C)C	x	n	x	164	x	n	n
CCCc1cc(=O)[nH]c(SCC(=O)c2cc(C)n(C)c2C)n1	n	x	n	n	n	x	x
Cc1cc(C(=O)CSc2nc(N)cc(=O)[nH]2)c(C)n1-c1ccc(OC(F)F)cc1	n	n	n	n	n	n	x
CCCc1cc(=O)[nH]c(SCC(=O)c2cc(C)n(-c3cc(C)on3)c2C)n1	n	n	n	x	n	n	n
Cc1cc(-n2c(C)cc(C(=O)CSc3nc(N)cc(=O)[nH]3)c2C)no1	n	n	n	n	n	n	n
COc1ccc2c3c([nH]c2c1)[C@H](CO)N(C(=O)c1ccncc1)CC31CN(C(=O)CC2CC2)C1	x	n	x	x	x	x	x
CN(C)c1ccc(/C=C/c2ccc3ccccc3[n+]2C)cc1	n	n	n	127	n	x	n
OCCNc1nc(NCc2ccccc2)c2ccccc2n1	n	n	n	155	n	n	n
CC(C)Nc1nc(NCCO)nc2ccccc12	n	n	x	x	n	n	x
C[C@@H]1CN([C@H](C)CO)C(=O)c2cc(NS(=O)(=O)c3ccccc3)ccc2O[C@@H]1CN(C)C(=O)Nc1ccc(C(F)(F)F)cc1	x	n	x	x	x	x	x
Nc1c(-c2ccccc2)nc(Cl)nc1-c1ccccc1	n	x	n	133	n	x	n
SMILES	SMARCA2 act	INS-1E GSIS act	PDI inh	Yeast UUG start-1	NR1D1 modulator	ERp5 block	Yeast UUG start-2
COc1cccc(S(=O)(=O)N[C@H]2CC[C@@H](CCn3cc(-c4ccccn4)nn3)O[C@H]2CO)c1	x	n	x	n	x	n	x
N=c1c(C(=O)NC2CCCC2)cc2c(=O)n3ccccc3nc2n1CCN1CCOCC1	n	x	n	474	n	x	n
N=c1c(C(=O)NC2CCCC2)cc2c(=O)n3ccccc3nc2n1CCCN1CCOCC1	n	n	n	n	n	n	x
COc1cccc(-c2cnc3c(c2)C(=O)N([C@H](C)CO)C[C@H](C)[C@H](CN(C)C(C)=O)O3)c1	x	n	x	n	x	n	x
COc1ccc([C@@H](OC(=O)Nc2ccc(SC)cc2)[C@@H](CCO)OC)cc1O	x	x	x	151	x	n	n
COc1ccc(NC(=O)Nc2ccc3c(c2)[C@H]2C[C@@H](CC(=O)NC4CCCCC4)O[C@@H](CO)[C@H]2O3)cc1	x	n	x	x	x	n	x

Source: PubChem BioAssay
